These results are taken from ChEMBL document CHEMBL4428076 (J Med Chem, 2016).

The nature of this series: Toxicity in C57BL/6 mouse assessed as conditioned place aversion at 30 mg/kg/day, ip measured for 30 mins post dose. The note with it: in vivo, 0.5 h.

For `CN(C(=O)Cc1ccc(Cl)c(Cl)c1)C1CCCCC1N1CCCC1.Cl` (stereo unspecified), the Activity result is on record as “Toxic”.
